By UniProt entry, the sequences of proteins in these tests, tags left out.
UniProt P51681, whole entry: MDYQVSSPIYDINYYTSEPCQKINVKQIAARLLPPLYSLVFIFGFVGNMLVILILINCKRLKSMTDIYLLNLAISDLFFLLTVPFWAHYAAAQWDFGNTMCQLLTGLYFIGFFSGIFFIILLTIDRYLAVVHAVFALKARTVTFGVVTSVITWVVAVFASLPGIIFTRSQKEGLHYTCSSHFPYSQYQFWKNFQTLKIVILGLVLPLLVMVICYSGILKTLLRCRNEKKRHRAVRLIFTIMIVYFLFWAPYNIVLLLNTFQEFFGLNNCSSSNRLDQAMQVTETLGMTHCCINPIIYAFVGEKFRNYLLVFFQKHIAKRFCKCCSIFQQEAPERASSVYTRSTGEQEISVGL

According to patent US12441688B1, “CCR5 inhibitor” (KING SAUD UNIVERSITY, priority 2025, dated 2025):

Target: T1, CCR5 receptor (Homo sapiens, UniProt P51681)
T1 construct: expressed in transfected cells; host or cells: Chinese hamster ovary (CHO) cells expressing the CCR5 receptor, kept under blasticidin S selection
Assay: CCR5 binding inhibition assay in CHO cells expressing the CCR5 receptor
Conditions: non-linear regression
Source text: All of the reagents and cell lines were obtained from commercial suppliers like Sigma Aldrich, Merck India Ltd., Himedia, and Rankem chemicals. Chinese Hamster Ovaries (CHO) cells expressing the CCR5 receptor were maintained in Ham's F-12 medium supplemented with 10% fetal calf serum, 50 units of penicillin per milliliter, and 50 micrograms of streptomycin per milliliter, in the presence of 5 micrograms of blasticidin S hydrochloride per milliliter. […] The inhibitory activity of the compounds on CCR5 binding was calculated using the formula: [1−(E−N)/(P−N)]×100%.
In this formula, N represents the absorbance at 450 nm in the negative control (the control antibody), while P corresponds to the absorbance in the positive control (the detecting antibody). E corresponds to the absorbance of the test compounds.
The CCR5 binding profiles of 4-(4-((4-(5-isopropyl-3-methyl-1H-pyrazole-4-carbonyl)-1,4-diazepan-1-yl)methyl)phenoxy)benzonitrile compound were determined and compared with those of previously published CCR5 inhibitor, Maraviroc, using in vitro CCR5 inhibition studies. The data was analyzed using non-linear regression analysis to determine the IC50 values for both compounds.

Maraviroc [reference compound]
IC50: 2.91 nM
